From patent US20240398795A1, “COMBINATION THERAPIES USING PRMT5 INHIBITORS FOR THE TREATMENT OF CANCER” (MIRATI THERAPEUTICS, INC., priority 2021, published 2024)

System: MIAPaCa-2 xenograft tumors
Test: MIAPaCa-2 xenograft tumor volume study
Type: in vivo, mice
Details: Day 8; n=5; MRTX1719 100 mg/kg PO QD; Docetaxel 15 mg/kg IP Q7D; combination 100 mg PO QD + 15 mg/kg IP Q7D
Procedure: Immunodeficient female nu/nu or BALBC/Nude mice were subcutaneously implanted with 3×10^6 to 1×10^7 human derived cancer cells depending on the cell line xenograft model. Tumors were measured using calipers until they reached approximately 100-150 mm^3. Animals were randomized to receive A) vehicle (0.5% methylcellulose (4000 cps)/0.2% Tween80 in water), B) a PRMT5 inhibitor, C) docetaxel, or D) the PRMT5 inhibitor and docetaxel, administered in accordance with the indicated route, schedule and treatment duration. Tumor volume was measured twice a week (n=5/treatment group). Average tumor volume and standard error of the mean was calculated and plotted at each study day in GraphPad.
This example was carried out according to the study procedure described above. The PRMT5 inhibitor was MRTX1719 administered at 100 mg/kg once a day (QD). MRTX1719 is (2M)-2-(4-(4-(aminomethyl)-1-oxo-1,2-dihydrophthalazin-6-yl)-1-methyl-1H-pyrazol-5-yl)-4-chloro-6-cyclopropoxy-3-fluorobenzonitrile, disclosed as Example 16-8 at p. 307 of the International patent publication No. WO 2021/050915 A1, published 18 Mar. 2021, incorporated by reference in its entirety.
Substantially the same procedure of Example 1 was repeated except with mice bearing MIAPaCa-2 xenograft tumors.

CC(=O)O[C@@]12CO[C@@H]1C[C@H](O)[C@@]1(C)C(=O)[C@H](O)C3=C(C)[C@@H](OC(=O)[C@H](O)[C@@H](NC(=O)OC(C)(C)C)c4ccccc4)C[C@@](O)([C@@H](OC(=O)c4ccccc4)[C@H]21)C3(C)C [Docetaxel, docetaxel]
Tumor Volume, Mean: 243 mm^3
